The results in this text go back to patent US9359338B2, “Cyclopropanecarboxamido-substitute aromatic compounds as anti-tumor agents” (Crown Bioscience Inc. (Taiwan), priority 2012, dated 2016).

Amino acid sequences for entries named in this document (tags omitted). Residues count along the entry.
UniProt P35968, 790-1356 limits assumed: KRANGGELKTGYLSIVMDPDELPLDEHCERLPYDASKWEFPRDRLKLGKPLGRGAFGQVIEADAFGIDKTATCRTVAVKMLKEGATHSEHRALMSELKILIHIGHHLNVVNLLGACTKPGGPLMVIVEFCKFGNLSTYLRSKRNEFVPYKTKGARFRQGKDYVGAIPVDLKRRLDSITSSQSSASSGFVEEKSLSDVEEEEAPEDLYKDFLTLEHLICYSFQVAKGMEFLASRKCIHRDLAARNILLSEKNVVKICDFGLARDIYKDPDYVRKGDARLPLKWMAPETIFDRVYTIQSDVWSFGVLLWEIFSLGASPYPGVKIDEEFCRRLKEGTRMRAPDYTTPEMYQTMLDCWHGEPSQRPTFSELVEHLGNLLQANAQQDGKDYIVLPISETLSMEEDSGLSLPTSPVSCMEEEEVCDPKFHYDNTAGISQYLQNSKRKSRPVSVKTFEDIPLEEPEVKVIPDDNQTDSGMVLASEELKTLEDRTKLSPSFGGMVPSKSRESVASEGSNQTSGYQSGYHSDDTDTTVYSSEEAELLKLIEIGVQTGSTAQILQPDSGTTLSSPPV
UniProt P15056, 416-766 limits assumed: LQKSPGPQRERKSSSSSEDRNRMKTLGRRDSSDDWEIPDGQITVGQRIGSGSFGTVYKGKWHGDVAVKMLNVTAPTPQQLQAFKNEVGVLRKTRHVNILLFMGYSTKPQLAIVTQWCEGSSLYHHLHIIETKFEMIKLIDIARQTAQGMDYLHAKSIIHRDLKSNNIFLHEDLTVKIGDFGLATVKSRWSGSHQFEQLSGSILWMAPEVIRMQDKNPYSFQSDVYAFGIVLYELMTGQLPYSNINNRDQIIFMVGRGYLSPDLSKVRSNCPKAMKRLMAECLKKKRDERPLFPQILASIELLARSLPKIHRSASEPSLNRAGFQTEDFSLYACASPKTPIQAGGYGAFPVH

Assay [1] concerns the target KDR kinase (790-1356 AA) (Homo sapiens (Human), UniProt P35968). Briefly: Inhibitory activity at KDR kinase (Lance Ultra Ulight-TK assay). To be noted: read-out: KDR IC50.
Assay [2] has as its target B-Raf kinase (Homo sapiens (Human), UniProt P15056). Briefly: Inhibitory activity at B-Raf kinase (ADP-GLO assay).
The test system of assay [3] is pERK in MDA-MB-231 cells. Briefly: Inhibitory activity at pERK (In Cell Western, MDA-MB-231 cells). To be noted: read-out: MDA-MB-231 pERK IC50.
Assay [4] has as its system PLC-PRF-5 cells. Briefly: Inhibition of proliferation of PLC-PRF-5 cells (ATPlite). To be noted: read-out: PLC-PRF-5 cell proliferation IC50. In general terms: Cellular ATP, detected with luciferase, serves as a proxy for viable cell number.

For the compound `Cc1cc(NC(=O)Nc2ccc(F)c(C(C)(F)F)c2)ccc1Oc1ccnc(NC(=O)C2CC2)c1`, the IC50 was found to be 9.5 nM in assay [1]; 21 nM in assay [2] (read-out: B-Raf IC50, B-Raf kinase); 7.1 nM in assay [3]; 404 nM in assay [4].
Turning to `O=C(Nc1ccc(Oc2ccnc(NC(=O)C3CC3)c2)cc1)Nc1ccc(Cl)c(C(F)(F)F)c1` [Exe. 137], the “in vitro IC50 at B-Raf relative to sorafenib” value in assay [2] (potency compared with sorafenib) was “four times more potent than that of sorafenib”.
